Binding of CDR-mutated scFvs to a peptide of the spike HR2 region

Values reported by Engelhart et al. 2022, doi:10.1038/s41597-022-01779-4 (FLAb copy).

The target is the same throughout: PDVDLGDISGINAS, from the HR2 region of SARS-CoV-2 spike.

The variants keep the light chain, the linker and the frameworks of Ab-14 (scFv order VH, the linker GGGGSGGGGSGGGGS, VL).
VH: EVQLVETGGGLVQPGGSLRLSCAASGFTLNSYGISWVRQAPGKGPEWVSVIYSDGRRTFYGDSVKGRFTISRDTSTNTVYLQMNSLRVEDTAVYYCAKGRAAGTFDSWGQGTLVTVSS
VL: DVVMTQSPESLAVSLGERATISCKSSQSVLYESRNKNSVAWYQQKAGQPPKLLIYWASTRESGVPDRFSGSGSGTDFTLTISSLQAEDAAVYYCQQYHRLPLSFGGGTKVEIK

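The parent was found by panning a naive human phage display library on the peptide. The library (AAYL49) carries one to three amino acid substitutions per variant, with no insertions or deletions. AlphaSeq pools MATa yeast showing the antibodies with MATalpha yeast showing the peptide. Mating (16 h, 30 °C) was followed by selection of diploids and sequencing of their barcodes. Scores were corrected for input abundance and mapped to Kd with protein pairs of known affinity run in the same pool. The assay was run in three technical replicates.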

Positions count from residue 1 of the parent VH; D54T puts T in place of D. All variants listed here change Y60 of the VH, counted from its first residue. The read-out is the apparent dissociation constant on a log10 scale (nM): the lower, the stronger. "nd" marks a missing value. The strain was present, yet no cells mated with the target were sequenced in that replicate, which points to weak or no binding. As a blank, each scFv also met three strains without target: over library AAYL49, 15% of these pairings were detected, typically at 4.06 and seldom below 2.83. Also given: how often the same scFv was detected with the empty control strains.

Variant D54T T58Y Y60H showed nd, nd, nd (controls 1 of 9). Variant N30C Y52V Y60K showed nd, nd, nd (controls 0 of 9). Variant I34R Y60F G61D showed nd, nd, 4.42 (controls 1 of 9). For Y60V K65F F105N, the assay gave nd, nd, nd (controls 2 of 9). For R57V T58W Y60G, the assay gave nd, nd, 4.22 (controls 7 of 9).

Variant N30R Y60C S63R showed nd, nd, nd (controls 0 of 9). With G55D T58K Y60E the result was nd, nd, nd (controls 0 of 9). Variant Y52V Y60V G61D gave nd, 4.63, 5.63 (controls 5 of 9). For R57L Y60V A101I, the assay gave 4.16, 2.93, 3.57 (controls 1 of 9). Variant T28G Y52D Y60Q showed nd, 3.47, nd (controls 0 of 9).

Variant L29Y Y60A V64D showed nd, nd, nd (controls 1 of 9). With I34R Y52R Y60H the result was 4.20, 5.30, 3.60 (controls 4 of 9). With I51A Y60H F105R the result was 3.85, 3.57, nd (controls 0 of 9). Variant F27L Y60G S63W gave nd, nd, nd (controls 1 of 9). Variant S31G Y60L K65G showed nd, nd, nd (controls 0 of 9).

With D54K Y60H the result was nd, nd, 5.33 (controls 3 of 9). For L29H Y60D G61F, the assay gave nd, nd, nd (controls 0 of 9). With Y60Q T104M the result was nd, nd, nd (controls 1 of 9). For Y60G G99H F105R, the assay gave nd, nd, nd (controls 3 of 9). Variant G26M I34N Y60G gave nd, 4.21, nd (controls 3 of 9).

Variant N30H R56T Y60P gave 4.55, 3.81, 4.98 (controls 7 of 9). For Y60Q V64D T104Y, the assay gave nd, 4.04, 5.00 (controls 2 of 9). With Y60F S107I the result was 2.59, 2.13, 2.02 (controls 2 of 9). Variant Y52I T58L Y60K gave nd, nd, nd (controls 0 of 9). For Y52I Y60G S63V, the assay gave nd, nd, nd (controls 0 of 9).

Variant Y32N Y60M K65M gave 3.62, nd, nd (controls 1 of 9). Variant G26P Y32V Y60M showed nd, nd, nd (controls 2 of 9). For G33E Y60A G99K, the assay gave nd, nd, nd (controls 0 of 9). Variant L29H T58K Y60C showed nd, nd, nd (controls 1 of 9). Variant Y60P showed nd, 3.87, 5.72 (controls 3 of 9).

With N30A Y60K A102T the result was nd, nd, nd (controls 0 of 9).

From the list, the first 4 with no signal in any replicate:

{"changes": "D54T T58Y Y60H", "log10 Kd, replicates": "nd, nd, nd", "empty controls": "1/9"}
{"changes": "N30C Y52V Y60K", "log10 Kd, replicates": "nd, nd, nd", "empty controls": "0/9"}
{"changes": "Y60V K65F F105N", "log10 Kd, replicates": "nd, nd, nd", "empty controls": "2/9"}
{"changes": "N30R Y60C S63R", "log10 Kd, replicates": "nd, nd, nd", "empty controls": "0/9"}